Experimental data taken from paper PMC9551036, “A selective and orally bioavailable VHL-recruiting PROTAC achieves SMARCA2 degradation in vivo” (Nature Communications, 2022).
Where “and” joins values, the source holds several entries; their conditions need not be identical. Equal values may be shown once. Read-outs that look alike come from different tables or passages of the source.

Protein sequences, listed by entry. Tags and fused reporters are not part of them. Chains listed by the source or under a name are the forms on record and can include a tag or linker. Residues count along the entry.
UniProt P51531, 1373-1493 isoform 2 limits assumed: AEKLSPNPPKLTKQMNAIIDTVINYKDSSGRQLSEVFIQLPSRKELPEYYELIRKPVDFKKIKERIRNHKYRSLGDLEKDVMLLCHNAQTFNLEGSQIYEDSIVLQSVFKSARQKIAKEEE
UniProt P51531, whole entry: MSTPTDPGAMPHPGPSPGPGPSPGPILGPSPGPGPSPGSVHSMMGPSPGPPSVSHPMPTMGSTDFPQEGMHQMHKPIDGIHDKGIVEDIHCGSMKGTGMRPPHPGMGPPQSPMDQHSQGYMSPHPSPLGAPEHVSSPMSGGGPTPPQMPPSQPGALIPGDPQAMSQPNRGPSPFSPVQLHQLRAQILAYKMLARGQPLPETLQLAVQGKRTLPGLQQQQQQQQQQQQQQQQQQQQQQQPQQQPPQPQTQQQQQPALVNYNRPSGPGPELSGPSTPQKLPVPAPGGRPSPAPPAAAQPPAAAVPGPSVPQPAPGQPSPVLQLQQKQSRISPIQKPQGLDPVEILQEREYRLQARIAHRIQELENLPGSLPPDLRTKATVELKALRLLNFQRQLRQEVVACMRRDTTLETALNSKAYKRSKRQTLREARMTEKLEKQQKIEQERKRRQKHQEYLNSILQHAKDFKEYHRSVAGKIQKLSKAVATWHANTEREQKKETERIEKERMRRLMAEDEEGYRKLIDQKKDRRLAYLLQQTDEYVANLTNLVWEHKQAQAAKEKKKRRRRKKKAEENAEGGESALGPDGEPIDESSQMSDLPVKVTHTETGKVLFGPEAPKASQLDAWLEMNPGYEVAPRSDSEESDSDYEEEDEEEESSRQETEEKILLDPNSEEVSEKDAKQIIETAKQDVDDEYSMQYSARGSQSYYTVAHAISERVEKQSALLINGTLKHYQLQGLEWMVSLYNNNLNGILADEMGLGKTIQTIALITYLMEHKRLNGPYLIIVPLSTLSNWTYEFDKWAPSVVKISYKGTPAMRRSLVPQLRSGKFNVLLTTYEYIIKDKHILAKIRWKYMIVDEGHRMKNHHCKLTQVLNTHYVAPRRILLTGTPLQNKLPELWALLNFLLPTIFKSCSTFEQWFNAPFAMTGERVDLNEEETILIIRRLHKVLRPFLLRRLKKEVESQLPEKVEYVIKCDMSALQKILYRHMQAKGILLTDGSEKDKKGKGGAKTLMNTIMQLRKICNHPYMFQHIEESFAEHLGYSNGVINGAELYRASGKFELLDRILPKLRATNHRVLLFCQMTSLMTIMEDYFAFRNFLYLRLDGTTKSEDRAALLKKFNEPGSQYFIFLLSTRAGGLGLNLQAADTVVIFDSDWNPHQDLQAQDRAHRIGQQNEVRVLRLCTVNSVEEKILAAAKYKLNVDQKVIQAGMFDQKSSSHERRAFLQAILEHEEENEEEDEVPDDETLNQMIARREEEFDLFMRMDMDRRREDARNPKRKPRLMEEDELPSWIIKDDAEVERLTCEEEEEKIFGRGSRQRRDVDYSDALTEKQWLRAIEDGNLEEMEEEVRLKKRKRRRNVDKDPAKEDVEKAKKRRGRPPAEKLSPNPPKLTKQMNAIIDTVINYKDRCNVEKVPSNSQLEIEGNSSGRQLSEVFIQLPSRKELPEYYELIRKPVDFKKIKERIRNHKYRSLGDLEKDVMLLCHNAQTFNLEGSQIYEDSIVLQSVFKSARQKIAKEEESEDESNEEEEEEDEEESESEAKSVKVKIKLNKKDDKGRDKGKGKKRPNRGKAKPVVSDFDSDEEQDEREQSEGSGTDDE
UniProt P51531, 1373-1493 with tags or gaps isoform 2 limits assumed: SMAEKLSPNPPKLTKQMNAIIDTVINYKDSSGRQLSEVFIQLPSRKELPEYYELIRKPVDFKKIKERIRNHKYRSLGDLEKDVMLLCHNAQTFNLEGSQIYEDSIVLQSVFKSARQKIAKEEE
UniProt P51532, 1448-1569 limits assumed: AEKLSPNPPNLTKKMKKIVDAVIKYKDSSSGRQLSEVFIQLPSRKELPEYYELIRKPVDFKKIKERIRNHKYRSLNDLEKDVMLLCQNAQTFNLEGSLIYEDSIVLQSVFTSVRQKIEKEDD
UniProt P51532, whole entry: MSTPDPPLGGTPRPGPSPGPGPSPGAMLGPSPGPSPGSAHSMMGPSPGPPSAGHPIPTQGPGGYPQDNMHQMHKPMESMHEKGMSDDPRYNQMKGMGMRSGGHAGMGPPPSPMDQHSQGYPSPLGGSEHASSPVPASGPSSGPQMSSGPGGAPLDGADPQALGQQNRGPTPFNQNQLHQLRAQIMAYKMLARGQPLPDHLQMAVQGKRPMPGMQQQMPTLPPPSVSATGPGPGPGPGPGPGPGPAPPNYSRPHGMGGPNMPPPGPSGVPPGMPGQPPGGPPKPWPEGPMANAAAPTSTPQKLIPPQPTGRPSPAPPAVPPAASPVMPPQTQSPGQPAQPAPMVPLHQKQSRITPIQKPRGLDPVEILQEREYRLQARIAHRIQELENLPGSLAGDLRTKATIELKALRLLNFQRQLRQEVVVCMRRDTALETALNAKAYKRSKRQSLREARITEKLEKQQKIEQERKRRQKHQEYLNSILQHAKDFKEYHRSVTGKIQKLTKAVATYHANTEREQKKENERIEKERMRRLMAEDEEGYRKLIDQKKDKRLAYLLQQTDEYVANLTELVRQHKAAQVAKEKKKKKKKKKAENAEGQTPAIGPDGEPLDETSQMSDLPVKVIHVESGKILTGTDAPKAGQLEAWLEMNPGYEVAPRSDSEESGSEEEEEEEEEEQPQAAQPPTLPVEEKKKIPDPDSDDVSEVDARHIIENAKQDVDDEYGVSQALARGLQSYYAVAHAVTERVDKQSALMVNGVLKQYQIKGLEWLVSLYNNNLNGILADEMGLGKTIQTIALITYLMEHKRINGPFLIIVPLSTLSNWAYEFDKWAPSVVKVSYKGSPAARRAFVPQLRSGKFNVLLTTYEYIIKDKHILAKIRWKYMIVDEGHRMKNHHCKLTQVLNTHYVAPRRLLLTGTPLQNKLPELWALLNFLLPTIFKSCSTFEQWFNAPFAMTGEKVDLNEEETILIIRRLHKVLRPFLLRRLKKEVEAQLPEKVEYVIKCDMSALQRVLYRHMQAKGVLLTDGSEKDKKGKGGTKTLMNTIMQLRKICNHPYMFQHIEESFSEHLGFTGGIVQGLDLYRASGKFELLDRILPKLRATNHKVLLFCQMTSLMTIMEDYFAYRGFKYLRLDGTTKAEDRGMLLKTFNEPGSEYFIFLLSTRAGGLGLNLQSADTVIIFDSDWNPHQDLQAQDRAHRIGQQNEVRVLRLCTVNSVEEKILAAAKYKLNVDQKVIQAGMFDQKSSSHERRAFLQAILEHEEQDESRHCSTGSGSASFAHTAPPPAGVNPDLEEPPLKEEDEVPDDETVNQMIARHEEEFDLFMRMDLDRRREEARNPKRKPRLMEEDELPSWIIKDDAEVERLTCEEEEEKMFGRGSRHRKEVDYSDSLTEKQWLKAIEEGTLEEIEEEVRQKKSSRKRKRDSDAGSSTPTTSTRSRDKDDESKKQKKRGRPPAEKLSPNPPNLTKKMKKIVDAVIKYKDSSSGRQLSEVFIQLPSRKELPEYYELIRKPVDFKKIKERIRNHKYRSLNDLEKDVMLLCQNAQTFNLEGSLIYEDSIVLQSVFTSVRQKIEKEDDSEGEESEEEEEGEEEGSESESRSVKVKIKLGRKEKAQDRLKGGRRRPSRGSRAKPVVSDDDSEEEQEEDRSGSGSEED
UniProt P40337, 54-213 limits assumed: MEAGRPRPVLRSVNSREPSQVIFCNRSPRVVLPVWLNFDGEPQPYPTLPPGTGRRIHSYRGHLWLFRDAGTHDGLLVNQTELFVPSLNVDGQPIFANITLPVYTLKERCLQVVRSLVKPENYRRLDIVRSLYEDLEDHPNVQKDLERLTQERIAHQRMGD
UniProt Q86U86, 645-766 limits assumed: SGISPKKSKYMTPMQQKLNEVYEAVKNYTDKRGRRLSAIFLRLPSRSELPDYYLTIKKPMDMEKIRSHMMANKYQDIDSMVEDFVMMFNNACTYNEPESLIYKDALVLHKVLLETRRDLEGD
UniProt Q15370, 1-104 partner limits assumed: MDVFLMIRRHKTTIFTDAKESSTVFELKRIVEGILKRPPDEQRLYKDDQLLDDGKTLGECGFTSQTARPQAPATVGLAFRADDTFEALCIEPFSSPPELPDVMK
UniProt Q15369, 17-112 partner limits assumed: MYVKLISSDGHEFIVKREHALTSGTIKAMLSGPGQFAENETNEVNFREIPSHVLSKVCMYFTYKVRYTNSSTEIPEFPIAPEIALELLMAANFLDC

How the values were obtained:
[1] = biological target: SMARCA2^BD (Homo sapiens, UniProt P51531); test: SPR binding to immobilised SMARCA2 bromodomain
[2] = biological target: SMARCA4^BD (Homo sapiens, UniProt P51532); test: SPR binding to immobilised SMARCA4 bromodomain
[3] = biological target: VCB complex (Homo sapiens, UniProt P40337); test: SPR binary binding to immobilised VCB complex; conditions: read-out: VCB KD, binary binding to VCB, mean ± SD
[4] = biological target: T1, VCB: PROTAC: SMARCA2^BD ternary complex (Homo sapiens, UniProt P40337+P51531); test: SPR ternary complex measurement, VCB immobilised, 10 µM SMARCA2^BD present; conditions: for Kd: read-out: VCB + SMARCA2 KD, SPR
[5] = biological target: T2, VCB: PROTAC: SMARCA4^BD ternary complex (Homo sapiens, UniProt P40337+P51532); test: SPR ternary complex measurement, VCB immobilised, 10 µM SMARCA4^BD present; conditions: for Kd: read-out: VCB + SMARCA4 KD, SPR
[6] = biological target: T1, VCB: PROTAC: SMARCA2^BD ternary complex; test: TR-FRET ternary complex affinity and cooperativity, SMARCA2; type: binding; conditions: read-out: TR-FRET Ternary SMARCA2BD EC50 (PROTAC + VCB); TR-FRET competition for SMARCA2BD, + VCB; mean ± SD
[7] = biological target: VCB: PROTAC: SMARCA2^BD ternary complex (Homo sapiens, UniProt P51531); test: as above; type: binding; conditions: read-out: TR-FRET SMARCA2BD EC50; TR-FRET competition for SMARCA2BD, without VCB; mean ± SD
[8] = test system: VCB: PROTAC: SMARCA2^BD ternary complex; test: as above; type: binding, human; conditions: ratio TR-FRET EC50 / TR-FRET EC50 +VCB measured in the same run, SMARCA2BD
[9] = biological target: (Homo sapiens, UniProt P51532); test: TR-FRET ternary complex affinity and cooperativity, SMARCA4; type: binding; conditions: read-out: TR-FRET SMARCA4BD EC50; TR-FRET competition for SMARCA4BD, without VCB; mean ± SD
[10] = biological target: T2, VCB: PROTAC: SMARCA4^BD ternary complex; test: as above; type: binding; conditions: read-out: TR-FRET Ternary SMARCA4BD EC50 (PROTAC + VCB); TR-FRET competition for SMARCA4BD, + VCB; mean ± SD
[11] = test system: VCB: PROTAC: SMARCA4^BD ternary complex; test: as above; type: binding, human; conditions: ratio TR-FRET EC50 / TR-FRET EC50 +VCB measured in the same run, SMARCA4BD
[12] = biological target: T3, SMARCA2 (Homo sapiens, UniProt P51531); test: SMARCA2 capillary electrophoresis protein assay in RKO cells; conditions: mean ± SD; for DC50: read-out: SMARCA2 DC50
[13] = biological target: T4, SMARCA4 (Homo sapiens, UniProt P51532); test: SMARCA4 capillary electrophoresis protein assay in RKO cells; conditions: mean ± SD; for DC50: read-out: SMARCA4 DC50
[14] = biological target: T3, SMARCA2; test: Imaging-based SMARCA2 protein assay in RKO cells; conditions: read-out: RKO (18h) SMARCA2 DC50, 18h, individual replicates
[15] = biological target: T4, SMARCA4; test: Imaging-based SMARCA4 protein assay in RKO cells; conditions: read-out: RKO (18h) SMARCA4 DC50, 18h, individual replicates
[16] = test system: NCI-H1568 cells; test: Cell viability assay (CellTiter Glo) in NCI-H1568
[17] = Solubility testing
[18] = Microsomal stability
[19] = test system: Caco-2 cell monolayer; test: Bidirectional permeability measurement in Caco-2 cells
[20] = biological target: PBRM1BD5 (Homo sapiens, UniProt P40337+Q86U86); test: TR-FRET ternary complex affinity and cooperativity, PBRM1; conditions: read-out: TR-FRET Ternary PBRM1BD EC50 (PROTAC + VCB); TR-FRET competition for PBRM1BD5, + VCB; mean ± SD
[21] = biological target: PBRM1BD5 (Homo sapiens, UniProt Q86U86); test: as above; conditions: read-out: TR-FRET PBRM1BD EC50; TR-FRET competition for PBRM1BD5, without VCB; mean ± SD
[22] = test system: PBRM1BD5; test: as above; conditions: ratio TR-FRET EC50 / TR-FRET EC50 +VCB measured in the same run, PBRM1BD5

Structure (SMILES): Cc1ncsc1-c1ccc([C@H](CCCN2CCC(c3ccc4c(c3)n(C3CCCC3)c3nc(=O)c5c(Br)cccc5n43)CC2)NC(=O)[C@@H]2C[C@@H](O)CN2C(=O)[C@@H](NC(=O)C2(N(C)C)CC2)C(C)(C)C)cc1
- Kd ([1]; read-out: SMARCA2 KD, SMARCA2BD, mean ± SD): 45 nM
- Kd ([1]; read-out: SMARCA2 KD, individual replicates): 48.3 nM and 44.8 nM and 42.2 nM
- Kd ([2]; read-out: SMARCA4 KD, SMARCA4BD, mean ± SD): 92 nM
- Kd ([2]; read-out: SMARCA4 KD, individual replicates): 73.6 nM and 97.4 nM and 106 nM
- Kd [3]: 37 nM
- alpha ([4]; cooperativity, SMARCA2, ratio of KD values measured in the same run): 0.2
- Kd ([4]; ternary complex with SMARCA2BD, mean ± SD): 175 nM
- Kd ([4]; ternary, individual replicates): 107 nM and 262 nM and 156 nM
- alpha ([5]; cooperativity, SMARCA4, ratio of KD values measured in the same run): 0.5
- Kd ([5]; ternary complex with SMARCA4BD, mean ± SD): 69 nM
- Kd ([5]; ternary, individual replicates): 64.2 nM and 64.8 nM and 79 nM
- EC50 [6]: 17 nM
- EC50 [7]: 52 nM
- cooperativity α (SMARCA2BD) [8]: 3.3 ± 1.5
- EC50 [9]: 97 nM
- EC50 [10]: 54 nM
- cooperativity α (SMARCA4BD) [11]: 1.8 ± 0.4
- SMARCA2 Dmax ([12]; RKO (4 h)): 72 ± 7%
- SMARCA2 Dmax ([12]; RKO (18 h)): 83 ± 4%
- DC50 ([12]; RKO (4 h)): 4 nM
- DC50 ([12]; RKO (18 h)): 3 nM
- SMARCA4 Dmax ([13]; RKO (4 h)): 53 ± 15%
- SMARCA4 Dmax ([13]; RKO (18 h)): 76 ± 4%
- DC50 ([13]; RKO (4 h)): 18 nM
- DC50 ([13]; RKO (18 h)): 29 nM
- DC50 [14]: 1.78 nM and 4.04 nM (2×)
- DC50 [15]: 17.5 nM and 30.5 nM and 46.7 nM
- EC50 ([16]; read-out: EC50 cell proliferation (CellTiter Glo), NCI-H1568 (168 h), mean ± SD): 18 nM
- IC50 ([16]; read-out: NCI-H1568 (18h) CTG, NCI-H1568, (18h), CellTiter Glo, individual replicates): 24.3 nM and 21.9 nM and 10.5 nM
- Solubility pH 4.5 ([17]; pH 4.5): <1.000 <1.000 ug/mL
- Solubility pH 6.8 ([17]; pH 6.8): <1.000 <1.000 ug/mL
- Mic. Stab. Human ([18]; human liver microsomes): 68 ± 3 % QH
- Mic. Stab. Human QH ([18]; human liver microsomes): 70.000% and 66.200%
- Mic. Stab. Mouse QH ([18]; mouse liver microsomes): 79.200% and 63.000%
- Mic. Stab. Rat ([18]; rat liver microsomes): <23 % QH
- Mic. Stab. Rat QH ([18]; rat liver microsomes): <23.100 <23.100%
- Caco-2 Pab [19]: 2 ± 1 10-6 cm/s
- EC50 [20]: 3 nM
- EC50 [21]: 22 nM
- cooperativity α (PBRM1BD) [22]: 6.6 ± 0.5
